One data set has as its target Fibrinogen (UniProt P02671).
Data set [1] has as its target protease-activated receptor 1 (PAR 1) (UniProt P25116).
Another data set deals with Protein C (UniProt P04070).

As for “Wild type human thrombin expressed in E. coli”, in the data set with Fibrinogen, the kcat/Km, fibrinogen (FpA); E. coli WT; activation: Ecarin stood at 9.6e+06 M⁻¹ s⁻¹. Besides, the kcat/Km, PAR 1; E. coli WT; activation: Ecarin in data set [1] worked out at 2.4e+07 M⁻¹ s⁻¹. Further, the kcat/Km, protein C activation (50 nM TM); E. coli WT; activation: Ecarin with Protein C was found to be 220000 M⁻¹ s⁻¹.
Regarding “E. coli E-WE thrombin prepared by activation with ecarin only from E-WE prethrombin-2 with two ecarin sites”, the kcat/Km, fibrinogen (FpA); E. coli E-WE Two ecarin sites Lot 1; activation: Ecarin Only with Fibrinogen worked out at 270 M⁻¹ s⁻¹. Also, in data set [1], the kcat/Km, PAR 1; E. coli E-WE Two ecarin sites Lot 1; activation: Ecarin Only worked out at 9900 M⁻¹ s⁻¹. Also, in the data set with Protein C, the kcat/Km, protein C activation (50 nM TM); E. coli E-WE Two ecarin sites Lot 1; activation: Ecarin Only worked out at 26600 M⁻¹ s⁻¹.
On to “WE thrombin (W215A/E217A) prepared from WE prethrombin-1 expressed in BHK cells”, for which the kcat/Km, fibrinogen (FpA); BHK WE; activation: Prothrombinase, Ecarin with Fibrinogen is 5200 M⁻¹ s⁻¹. The kcat/Km, PAR 1; BHK WE; activation: Prothrombinase, Ecarin in data set [1] was determined as 17000 M⁻¹ s⁻¹. In addition, in the data set with Protein C, the kcat/Km, protein C activation (50 nM TM); BHK WE; activation: Prothrombinase, Ecarin stood at 4100 M⁻¹ s⁻¹.
Consider “Thrombin mutant Δ146-149e expressed in E. coli”, for which the kcat/Km, fibrinogen (FpA); E. coli Δ146-149e; activation: Prothrombinase, Ecarin with Fibrinogen was 110000 M⁻¹ s⁻¹. For the same substance, the kcat/Km, PAR 1; E. coli Δ146-149e; activation: Prothrombinase, Ecarin in data set [1] was found to be 130000 M⁻¹ s⁻¹. The kcat/Km, protein C activation (50 nM TM); E. coli Δ146-149e; activation: Prothrombinase, Ecarin with Protein C worked out at 35000 M⁻¹ s⁻¹.
For the substance “Wild type human thrombin expressed in BHK cells”, the kcat/Km, fibrinogen (FpA); BHK WT; activation: Prothrombinase with Fibrinogen worked out at 1.7e+07 M⁻¹ s⁻¹. In addition, in data set [1], the kcat/Km, PAR 1; BHK WT; activation: Prothrombinase was found to be 2.6e+07 M⁻¹ s⁻¹. Also, the kcat/Km, protein C activation (50 nM TM); BHK WT; activation: Prothrombinase with Protein C came to 220000 M⁻¹ s⁻¹.
Regarding “E. coli-derived recombinant E-WE thrombin (W215A/E217A), prepared from E-WE prethrombin-2 expressed in E. coli”, in the data set with Fibrinogen, the Catalytic activity (kcat/Km), fibrinogen; WE thrombin mutant expressed in E. coli is 160 M⁻¹ s⁻¹; the kcat/Km, fibrinogen (FpA); E. coli E-WE (Lot 1) FZ; activation: Prothrombinase + Ecarin is 161 M⁻¹ s⁻¹; the kcat/Km, fibrinogen (FpA); E. coli E-WE (Lot 2); activation: Prothrombinase Ecarin, AC worked out at 130 M⁻¹ s⁻¹; the kcat/Km, fibrinogen (FpA); E. coli E-WE (Lot 3); activation: Ecarin, AC was found to be 1100 M⁻¹ s⁻¹. In the data set with Fibrinogen, the kcat/Km, fibrinogen (FpA); E. coli E-WE (Lot 4); activation: Prothrombinase, Ecarin, AC is 190 M⁻¹ s⁻¹; the kcat/Km, fibrinogen (FpA); E. coli E-WE (Lot 5); activation: Prothrombinase + Ecarin is 170 M⁻¹ s⁻¹; the kcat/Km, fibrinogen (FpA); E. coli E-WE (Lot 6, FZ); activation: Prothrombinase + Ecarin was found to be 184 M⁻¹ s⁻¹. Further, in data set [1], the Catalytic activity (kcat/Km), PAR 1; WE thrombin mutant expressed in E. coli was found to be 10000 M⁻¹ s⁻¹; the kcat/Km, PAR 1; E. coli E-WE (Lot 1) FZ; activation: Prothrombinase + Ecarin is 10000 M⁻¹ s⁻¹; the kcat/Km, PAR 1; E. coli E-WE (Lot 2); activation: Prothrombinase Ecarin, AC is 4000 M⁻¹ s⁻¹; the kcat/Km, PAR 1; E. coli E-WE (Lot 3); activation: Ecarin, AC was found to be 96000 M⁻¹ s⁻¹. In data set [1], the kcat/Km, PAR 1; E. coli E-WE (Lot 4); activation: Prothrombinase, Ecarin, AC came to 32000 M⁻¹ s⁻¹; the kcat/Km, PAR 1; E. coli E-WE (Lot 5); activation: Prothrombinase + Ecarin stood at 9400 M⁻¹ s⁻¹; the kcat/Km, PAR 1; E. coli E-WE (Lot 6, FZ); activation: Prothrombinase + Ecarin amounted to 8500 M⁻¹ s⁻¹. Further, in the data set with Protein C, the Catalytic activity (kcat/Km), Protein C; WE thrombin mutant expressed in E. coli was 22000 M⁻¹ s⁻¹; the kcat/Km, protein C activation (50 nM TM); E. coli E-WE (Lot 1) FZ; activation: Prothrombinase + Ecarin came to 9260 M⁻¹ s⁻¹; the kcat/Km, protein C activation (50 nM TM); E. coli E-WE (Lot 2); activation: Prothrombinase Ecarin, AC turned out to be 25000 M⁻¹ s⁻¹; the kcat/Km, protein C activation (50 nM TM); E. coli E-WE (Lot 3); activation: Ecarin, AC came to 14000 M⁻¹ s⁻¹. In the data set with Protein C, the kcat/Km, protein C activation (50 nM TM); E. coli E-WE (Lot 4); activation: Prothrombinase, Ecarin, AC worked out at 16000 M⁻¹ s⁻¹; the kcat/Km, protein C activation (50 nM TM); E. coli E-WE (Lot 5); activation: Prothrombinase + Ecarin is 3700 M⁻¹ s⁻¹; the kcat/Km, protein C activation (50 nM TM); E. coli E-WE (Lot 6, FZ); activation: Prothrombinase + Ecarin stood at 24600 M⁻¹ s⁻¹.
Turning to “Thrombin mutant Δ146-149e expressed in BHK cells”, in the data set with Fibrinogen, the kcat/Km, fibrinogen (FpA); BHK Δ146-149e; activation: Ecarin turned out to be 71000 M⁻¹ s⁻¹. Besides, the kcat/Km, PAR 1; BHK Δ146-149e; activation: Ecarin in data set [1] came to 120000 M⁻¹ s⁻¹. The kcat/Km, protein C activation (50 nM TM); BHK Δ146-149e; activation: Ecarin with Protein C was determined as 13000 M⁻¹ s⁻¹.

The values are drawn from US20120164129.
